{"sequences": {"note": "Chains of the proteins cited; added tags and fusions are not shown.", "UniProt Q99705, whole entry": "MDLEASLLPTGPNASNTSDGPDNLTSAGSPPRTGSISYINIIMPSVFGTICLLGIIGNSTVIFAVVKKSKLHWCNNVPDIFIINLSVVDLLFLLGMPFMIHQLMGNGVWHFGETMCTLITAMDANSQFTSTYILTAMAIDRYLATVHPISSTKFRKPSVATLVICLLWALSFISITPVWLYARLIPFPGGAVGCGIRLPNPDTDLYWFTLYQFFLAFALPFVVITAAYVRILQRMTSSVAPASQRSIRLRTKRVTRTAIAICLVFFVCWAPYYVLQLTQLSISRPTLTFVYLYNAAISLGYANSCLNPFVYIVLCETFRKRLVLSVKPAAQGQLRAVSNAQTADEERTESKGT"}, "source": "patent US8067590B2", "about": "“Pyridone derivates with MCH antagonistic activity and medicaments comprising these compounds” (Boehringer Ingelheim International GmbH, priority 2006, dated 2011)", "data": [{"target": "hMCH-1R (Homo sapiens, UniProt Q99705)", "test": "MCH-1 receptor binding test (125I-MCH binding to membranes of hMCH-1R transfected CHO/Galpha16 cells)", "details": "read-out: IC50 value", "units": {"IC50": "µM"}, "values": [{"smiles": "CN1CCc2ccc(C(=O)Cn3ncc(OCc4ccc(Br)cn4)cc3=O)cc2C1", "IC50": 0.018}, {"smiles": "O=C(Cn1ncc(OCc2ccc(Br)cn2)cc1=O)c1ccc2c(c1)CNCC2", "IC50": 0.017}, {"smiles": "Cc1ccc(COc2ccn(CCc3ccc4c(c3)CCN(C)CC4)c(=O)c2)nc1", "IC50": 0.04}, {"smiles": "O=C(Cn1ccc(OCc2ccc(Br)cn2)cc1=O)c1ccc2c(c1)CNCC2", "IC50": 0.015}, {"smiles": "CN1CCc2ccc(C(=O)Cn3ccc(OCc4ccccc4)cc3=O)cc2C1", "IC50": 0.018}, {"smiles": "O=c1cc(OCc2cccs2)ccn1CCc1ccc2c(c1)CCNCC2", "IC50": 0.012}]}]}
